The results in this text go back to paper PMC11208427, “Magnesium enhances aurintricarboxylic acid’s inhibitory action on the plasma membrane Ca^2+-ATPase” (Scientific Reports, 2024).

Substrate in the data set: Nc1ncnc2c1ncn2[C@@H]1O[C@H](COP(=O)(O)OP(=O)(O)OP(=O)(O)O)[C@@H](O)[C@H]1O
The data set is described as follows: Ca2+-ATPase activity versus ATP concentration (apparent affinity KATP without ATA). Format: biochemical, Homo sapiens. Conditions: Mg2+ catalytic (high affinity) and regulatory (low affinity) ATP sites; overall value.

B1: plasma membrane Ca2+-ATPase (PMCA), 90% PMCA4b (Homo sapiens) (protein)
chain: MTNPSDRVLPANSMAESREGDFGCTVMELRKLMELRSRDALTQINVHYGGVQNLCSRLKTSPVEGLSGNPADLEKRRQVFGHNVIPPKKPKTFLELVWEALQDVTLIILEIAAIISLVLSFYRPAGEENELCGQVATTPEDENEAQAGWIEGAAILFSVIIVVLVTAFNDWSKEKQFRGLQCRIEQEQKFSIIRNGQLIQLPVAEIVVGDIAQVKYGDLLPADGILIQGNDLKIDESSLTGESDHVKKSLDKDPMLLSGTHVMEGSGRMVVTAVGVNSQTGIILTLLGVNEDDEGEKKKKGKKQGVPENRNKAKTQDGVALEIQPLNSQEGIDNEEKDKKAVKVPKKEKSVLQGKLTRLAVQIGKAGLLMSALTVFILILYFVIDNFVINRRPWLPECTPIYIQYFVKFFIIGITVLVVAVPEGLPLAVTISLAYSVKKMMKDNNLVRHLDACETMGNATAICSDKTGTLTMNRMTVVQAYIGGIHYRQIPSPDVFLPKVLDLIVNGISINSAYTSKILPPEKEGGLPRQVGNKTECALLGFVTDLKQDYQAVRNEVPEEKLYKVYTFNSVRKSMSTVIRNPNGGFRMYSKGASEIILRKCNRILDRKGEAVPFKNKDRDDMVRTVIEPMACDGLRTICIAYRDFDDTEPSWDNENEILTELTCIAVVGIEDPVRPEVPDAIAKCKQAGITVRMVTGDNINTARAIATKCGILTPGDDFLCLEGKEFNRLIRNEKGEVEQEKLDKIWPKLRVLARSSPTDKHTLVKGIIDSTVGEHRQVVAVTGDGTNDGPALKKADVGFAMGIAGTDVAKEASDIILTDDNFTSIVKAVMWGRNVYDSISKFLQFQLTVNVVAVIVAFTGACITQDSPLKAVQMLWVNLIMDTFASLALATEPPTESLLKRRPYGRNKPLISRTMMKNILGHAFYQLIVIFILVFAGEKFFDIDSGRKAPLHSPPSQHYTIVFNTFVLMQLFNEINSRKIHGEKNVFSGIYRNIIFCSVVLGTFICQIFIVEFGGKPFSCTSLSLSQWLWCLFIGIGELLWGQFISAIPTRSLKFLKEAGHGTTKEEITKDAEGLDEIDHAEMELRRGQILWFRGLNRIQTQIKVVKAFHSSLHESIQKPYNQKSIHSFMTHPEFAIEEELPRTPLLDEEEEENPDKASKFGTRVLLLDGEVTPYANTNNNAVDCNQVQLPQSDSSLQSLETSV
For orientation: Km means the concentration of substrate that gives half-maximal velocity. Turning to B1, the Km worked out at 215.9 µM.
